The conditions of this experiment: in comparison to a 15 mg dose of hydrocodone.

As for `CN1CC[C@]23c4c5ccc(O)c4O[C@H]2C(=O)CC[C@H]3[C@H]1C5` [Hydromorphone], the “Equianalgesic dose, Calculated Dose” value is 3.375 mg.

(Values after US20150104519A1, “Pharmaceutical Compositions” (Alpharma Pharmaceuticals LLC, priority 2007, published 2015).)
